The values that follow come from patent publication EP1590666B1, “COMPOSITIONS AND METHODS FOR ENHANCING APOPTOSIS” (GENENTECH, INC., priority 2003, dated 2004).

By UniProt entry, the sequences of proteins in these tests, tags left out. Residues count along the entry.
UniProt P98170, 124-240 C202A/C213G: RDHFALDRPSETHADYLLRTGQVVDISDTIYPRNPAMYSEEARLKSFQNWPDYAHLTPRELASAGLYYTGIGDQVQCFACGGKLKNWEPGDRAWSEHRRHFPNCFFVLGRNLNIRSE
UniProt P98170, 241-356: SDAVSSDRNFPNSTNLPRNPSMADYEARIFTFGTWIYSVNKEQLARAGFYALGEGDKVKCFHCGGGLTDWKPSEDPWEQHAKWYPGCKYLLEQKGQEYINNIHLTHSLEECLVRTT

Holding throughout (assay): fluorescence polarization-based competition assay
Format in all cases: binding

For assay [1], the target named is T1, XIAP-BIR2 (Homo sapiens, UniProt P98170, C202A/C213G).
T1 construct: X-IAP BIR2 (amino acid residues 124-240 with mutations C202A and C213G); made in house; host or cells: Escherichia coli BL21 (DE3)
On the procedure: (§1) The apparent Kd values can be determined from the EC50 values.
(§2) The apparent Kd values were determined from the EC50 values. […] Samples were read after a 10-minute incubation.

Assay [2] deals with T2, ML-IAP-BIR (Homo sapiens, UniProt Q96CA5).
T2 construct: made in house; host or cells: Escherichia coli BL21 (DE3)
T2 sequence (Q96CA5 63-179): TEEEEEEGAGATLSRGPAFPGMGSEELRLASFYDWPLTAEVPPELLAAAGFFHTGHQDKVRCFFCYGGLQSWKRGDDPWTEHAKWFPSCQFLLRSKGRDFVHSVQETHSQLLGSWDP
The procedure: as §1, §2

Assay [3] concerns the target XIAP-BIR3 (Homo sapiens, UniProt P98170). More on the design: X-IAP BIR3 (amino acids residues 241-356); made in house; host or cells: Escherichia coli BL21 (DE3). The procedure: as §1, §2
Setting [4] is: Table 4, P4 amino acid/phenylethylamine scan.

What is called Ki is a measure of affinity in units of concentration, obtained from inhibition or displacement. High values mean a looser hold on the target, low ones a stronger hold on the target.

Structures are written as SMILES. Where only a bound is given, the exact number is not on record here.

As to `CC(C)[C@H](NC(=O)[C@H](C)N)C(=O)N1CCC[C@H]1C(=O)N[C@@H](CCc1ccccc1)C(=O)N[C@@H](C)C(=O)N[C@@H](CCC(N)=O)C(=O)N[C@@H](CCCCN)C(=O)N[C@@H](CO)C(=O)N[C@@H](CCC(=O)O)C(=O)O` [AVPX12AQKSE], the Ki is 6.7 µM in assay [1] (Table 3, positional scanning); 0.63 µM in assay [2]; 4.6 µM in assay [3].
On to `CC(CNC(=O)[C@@H]1CCCN1C(=O)[C@@H](NC(=O)[C@H](C)N)C(C)C)c1ccccc1` (stereo partly drawn) [AVPX31], for which the Ki in assay [1] (setting [4]) was 4.7 µM.
Consider `CC[C@H](C)[C@H](NC(=O)[C@@H]1CCCN1C(=O)[C@H](CCCCN)NC(=O)[C@H](C)N)C(=O)N[C@@H](C)C(=O)N[C@@H](CCC(N)=O)C(=O)N[C@@H](CCCCN)C(=O)N[C@@H](CO)C(=O)N[C@@H](CCC(=O)O)C(=O)O`, for which the Ki in assay [1] (Table 3, positional scanning) came to 83.9 µM; in assay [2], 1.9 µM.
Take `CC(C)[C@H](NC(=O)[C@H](C)N)C(=O)N1CCC[C@H]1C(=O)N[C@@H](Cc1ccc([N+](=O)[O-])cc1)C(=O)N[C@@H](C)C(=O)N[C@@H](CCC(N)=O)C(=O)N[C@@H](CCCCN)C(=O)N[C@@H](CO)C(=O)N[C@@H](CCC(=O)O)C(=O)O` [AVPX3AQKSE]: the Ki in assay [1] (Table 3, positional scanning) was 51.6 µM; in assay [2] it was 1 µM; in assay [3] it was 1.3 µM.
With `CC[C@H](C)[C@H](NC(=O)[C@@H]1CCCN1C(=O)CNC(=O)[C@H](C)N)C(=O)N[C@@H](C)C(=O)N[C@@H](CCC(N)=O)C(=O)N[C@@H](CCCCN)C(=O)N[C@@H](CO)C(=O)N[C@@H](CCC(=O)O)C(=O)O`, the Ki in assay [1] (Table 3, positional scanning) is more than 300 µM; in assay [2], 23.9 µM.
With `CCOc1ccccc1CCNC(=O)[C@@H]1CCCN1C(=O)[C@@H](NC(=O)[C@H](C)N)C(C)C` [AVPX40], the Ki in assay [1] (setting [4]) amounted to 6.3 µM.
Compound `CC(C)[C@H](NC(=O)[C@H](C)N)C(=O)N1CCC[C@H]1C(=O)NCC(c1ccccc1)c1ccccc1` [AVPX24] came in with a Ki in assay [1] (setting [4]) of 6.4 µM.
For `CC(C)[C@H](NC(=O)[C@H](C)N)C(=O)N1CCC[C@H]1C(=O)NCCc1cccc(F)c1` [AVPX37], in assay [1] (setting [4]), the affinity, expressed as Ki, was 7.3 µM.
With `COc1cccc(C[C@H](NC(=O)[C@@H]2CCCN2C(=O)[C@@H](NC(=O)[C@H](C)N)C(C)C)C(=O)N[C@@H](C)C(=O)N[C@@H](CCC(N)=O)C(=O)N[C@@H](CCCCN)C(=O)N[C@@H](CO)C(=O)N[C@@H](CCC(=O)O)C(=O)O)c1` [AVPX5AQKSE], the Ki in assay [1] (Table 3, positional scanning) amounted to 13.3 µM; in assay [2], 0.52 µM; in assay [3] it was 0.7 µM.
In assay [1] (setting [4]), `CC(C)[C@H](NC(=O)[C@H](C)N)C(=O)N1CCC[C@H]1C(=O)NCCc1cccc(Cl)c1` [AVPX39] yielded a Ki of 3.8 µM.
On to `CC(C)[C@H](NC(=O)[C@H](C)N)C(=O)N1CCC[C@H]1C(=O)N[C@H](CO)[C@H](O)c1ccccc1` [AVPX27], for which the Ki in assay [1] (setting [4]) came to 5.5 µM.
Compound `CC(C)[C@H](NC(=O)[C@H](C)N)C(=O)N1CCC[C@H]1C(=O)NC[C@H](O)c1ccccc1` [AVPX33] showed a Ki in assay [1] (setting [4]) of 9.4 µM.
Turning to `CCOc1cccc(CCNC(=O)[C@@H]2CCCN2C(=O)[C@@H](NC(=O)[C@H](C)N)C(C)C)c1` [AVPX34], the Ki in assay [1] (setting [4]) was 5.3 µM.
For `CC[C@H](C)[C@H](NC(=O)[C@H](CC(C)C)NC(=O)[C@@H](NC(=O)[C@H](C)N)C(C)C)C(=O)N[C@@H](C)C(=O)N[C@@H](CCC(N)=O)C(=O)N[C@@H](CCCCN)C(=O)N[C@@H](CO)C(=O)N[C@@H](CCC(=O)O)C(=O)O`, the Ki stood at 83.9 µM in assay [1] (Table 3, positional scanning) and 3.5 µM in assay [2].
As for `COC[C@H](Cc1ccccc1)NC(=O)[C@@H]1CCCN1C(=O)[C@@H](NC(=O)[C@H](C)N)C(C)C` [AVPX38], the Ki in assay [1] (setting [4]) was 6.8 µM.
In turn, `CC(C)[C@H](NC(=O)[C@H](C)N)C(=O)N1CCC[C@H]1C(=O)N[C@@H](CO)[C@@H](O)c1ccccc1` [AVPX25] yielded a Ki in assay [1] (setting [4]) of 13 µM.
Same read-out and setting: for `COc1ccc(Br)cc1CCNC(=O)[C@@H]1CCCN1C(=O)[C@@H](NC(=O)[C@H](C)N)C(C)C` [AVPX36] the value was 11.9 µM; for `CC(C)[C@H](NC(=O)[C@H](C)N)C(=O)N1CCC[C@H]1C(=O)NCCc1cccc(C(F)(F)F)c1` [AVPX26], 6.4 µM.
In the case of `CC[C@H](C)[C@H](NC(=O)[C@@H]1CCCN1C(=O)[C@H](CC(C)C)NC(=O)[C@H](C)N)C(=O)N[C@@H](C)C(=O)N[C@@H](CCC(N)=O)C(=O)N[C@@H](CCCCN)C(=O)N[C@@H](CO)C(=O)N[C@@H](CCC(=O)O)C(=O)O`, the Ki in assay [1] (Table 3, positional scanning) was more than 300 µM; in assay [2], 1.7 µM.
On to `CC[C@H](C)[C@H](NC(=O)[C@@H](NC(=O)[C@H](C)N)C(C)C)C(=O)N[C@H](C(=O)N[C@@H](C)C(=O)N[C@@H](CCC(N)=O)C(=O)N[C@@H](CCCCN)C(=O)N[C@@H](CO)C(=O)N[C@@H](CCC(=O)O)C(=O)O)[C@@H](C)CC`, for which the Ki in assay [1] (Table 3, positional scanning) came out at 44.2 µM; in assay [2] it was 3.5 µM.
Turning to `CC(C)[C@H](NC(=O)[C@H](C)NC(=O)[C@H](Cc1ccccc1)NC(=O)[C@@H]1CCCN1C(=O)[C@@H](NC(=O)[C@H](C)N)C(C)C)C(=O)N[C@@H](CCCCN)C(=O)N[C@@H](CO)C(=O)N[C@@H](CCC(=O)O)C(=O)O`, the Ki in assay [1] (Table 3, positional scanning) was found to be 14.7 µM; in assay [2], 0.16 µM; in assay [3], 0.39 µM.
Taken in the same sequence, the figures for `CC[C@H](C)[C@H](NC(=O)[C@@H]1CCCN1C(=O)[C@@H]1CCCN1C(=O)[C@H](C)N)C(=O)N[C@@H](C)C(=O)N[C@@H](CCC(N)=O)C(=O)N[C@@H](CCCCN)C(=O)N[C@@H](CO)C(=O)N[C@@H](CCC(=O)O)C(=O)O` were more than 300 µM, more than 230 µM and more than 415 µM.
`CC[C@H](C)[C@H](NC(=O)[C@@H]1CCCN1C(=O)[C@H](Cc1ccc(O)cc1)NC(=O)[C@H](C)N)C(=O)N[C@@H](C)C(=O)N[C@@H](CCC(N)=O)C(=O)N[C@@H](CCCCN)C(=O)N[C@@H](CO)C(=O)N[C@@H](CCC(=O)O)C(=O)O`: the Ki in assay [1] (Table 3, positional scanning) was 26.7 µM; in assay [2], 1.6 µM.
`CC(C)[C@H](NC(=O)[C@H](C)N)C(=O)N1CCC[C@H]1C(=O)N[C@@H](Cc1ccc(N)cc1)C(=O)N[C@@H](C)C(=O)N[C@@H](CCC(N)=O)C(=O)N[C@@H](CCCCN)C(=O)N[C@@H](CO)C(=O)N[C@@H](CCC(=O)O)C(=O)O` [AVPX4AQKSE]: the Ki in assay [1] (Table 3, positional scanning) worked out at 71.7 µM; in assay [2], 0.55 µM; in assay [3] it was 2 µM.
As to `CC[C@H](C)[C@H](NC(=O)[C@@H]1CCCN1C(=O)[C@H](Cc1c[nH]cn1)NC(=O)[C@H](C)N)C(=O)N[C@@H](C)C(=O)N[C@@H](CCC(N)=O)C(=O)N[C@@H](CCCCN)C(=O)N[C@@H](CO)C(=O)N[C@@H](CCC(=O)O)C(=O)O`, the Ki in assay [1] (Table 3, positional scanning) came to 38.1 µM; in assay [2], 2.4 µM.
Turning to `CC[C@H](C)[C@H](NC(=O)[C@@H]1CCCN1C(=O)[C@H](Cc1c[nH]c2ccccc12)NC(=O)[C@H](C)N)C(=O)N[C@@H](C)C(=O)N[C@@H](CCC(N)=O)C(=O)N[C@@H](CCCCN)C(=O)N[C@@H](CO)C(=O)N[C@@H](CCC(=O)O)C(=O)O`, the Ki in assay [1] (Table 3, positional scanning) turned out to be 45.8 µM; in assay [2] it was 1.9 µM.
For `CC[C@H](C)[C@H](NC(=O)[C@@H]1CCCN1C(=O)[C@H](CCCNC(=N)N)NC(=O)[C@H](C)N)C(=O)N[C@@H](C)C(=O)N[C@@H](CCC(N)=O)C(=O)N[C@@H](CCCCN)C(=O)N[C@@H](CO)C(=O)N[C@@H](CCC(=O)O)C(=O)O`, the Ki in assay [1] (Table 3, positional scanning) was 68.7 µM; in assay [2], 0.73 µM.
